Literature values as cited in US20250235429A1, “TREATMENT OF DISEASES VIA ADMINISTRATION OF BUNTANETAP AND AN ANTIDIABETIC AGENT” (ANNOVIS BIO, INC., priority 2024, published 2025).

Conditions: in vivo; cited from earlier work

Substance	duration [h]	onset [min]	peak concentration occurs after administration [h]
Regular insulin	5 to 8	30 to 60	2 to 4
NPH insulin	14 to 24	–	4 to 12
